Test results from patent US20150366932A1, “METHODS FOR PRODUCING DIKETOPIPERAZINES AND COMPOSITIONS CONTAINING DIKETOPIPERAZINES” (AMPIO PHARMACEUTICALS, INC., priority 2013, published 2015).

Amino acid sequences for entries named in this document (tags omitted). Residues count along the entry.
UniProt P27487, 39-766 limits assumed: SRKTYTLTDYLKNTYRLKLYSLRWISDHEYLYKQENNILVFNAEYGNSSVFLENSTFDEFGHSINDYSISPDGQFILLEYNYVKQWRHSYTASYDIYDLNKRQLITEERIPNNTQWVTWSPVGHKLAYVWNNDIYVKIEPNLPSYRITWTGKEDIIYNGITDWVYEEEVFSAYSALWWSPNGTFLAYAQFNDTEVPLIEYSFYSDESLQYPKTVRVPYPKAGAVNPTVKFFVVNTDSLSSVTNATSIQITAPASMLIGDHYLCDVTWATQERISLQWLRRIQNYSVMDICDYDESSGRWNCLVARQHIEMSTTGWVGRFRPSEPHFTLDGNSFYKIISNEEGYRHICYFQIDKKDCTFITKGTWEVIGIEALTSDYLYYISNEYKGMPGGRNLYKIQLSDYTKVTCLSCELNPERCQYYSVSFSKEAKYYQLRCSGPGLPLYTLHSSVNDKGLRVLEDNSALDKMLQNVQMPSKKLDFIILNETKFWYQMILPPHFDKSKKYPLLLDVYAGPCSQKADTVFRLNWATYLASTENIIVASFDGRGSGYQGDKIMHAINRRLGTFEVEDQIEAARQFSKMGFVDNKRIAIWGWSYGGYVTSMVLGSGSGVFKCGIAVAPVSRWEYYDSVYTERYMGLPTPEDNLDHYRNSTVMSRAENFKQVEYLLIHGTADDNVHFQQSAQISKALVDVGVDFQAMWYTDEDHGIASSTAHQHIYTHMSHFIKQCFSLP

Molecular target: T1, dipeptidyl peptidase IV (DPP-IV) (Homo sapiens, UniProt P27487)
T1 construct: the Cohn manufacturing process which isolates other plasma components such as DPP-IV; tissue CSL Behring LLC; Grifols Biologicals Inc; Octapharma USA Inc. (5% HSA products that contain the enzyme); host or cells: human plasma (Cohn fractionation; commercial 5% HSA solution)
Test: DPP-IV activity assay with chromogenic substrate Gly-Pro-pNA in HSA solutions
Format: biochemical
Conditions: 1%, 2.5% and 5% w/v HSA; 37° C., 24 hour
Description: DPP-IV activity was assayed by using a chromogenic substrate, Gly-Pro-pNA, as described in E. Nemoto, S. Sugawara, H. Takada, et al., Increase of CD26/dipeptidyl peptidase IV expression on human gingival fibroblasts upon stimulation with cytokines and bacterial components. Infect Immun 67 (1999) 6225-33. All reactions were carried out in DPP-IV assay buffer (pH 7.6) consisting of 0.1M HEPES, 0.12M NaCl, 5 mM KCl, 8 mM glucose, and 10 mg/ml bovine serum albumin (BSA). 5% commercial HSA, recombinant HSA, or buffer blank (0.9% NaCl) were combined with 1 mM Gly-Pro-pNA (DPP-IV substrate) in assay buffer or assay buffer only (−CON). Incubations were performed at 37° C. or 60° C. for 2-24 hours. […] All incubations were read at 405 nm (SpectraMax M2 spectrophotometer, Molecular Devices LLC, Sunnyvale, Calif., USA). Each reading at 405 nm was corrected by subtracting the A405 for the DPP-IV substrate-containing incubation from the corresponding A405 for the −CON incubation for each HSA solution tested.
The amount of pNA produced in μM was calculated based on the pNA molar extinction coefficient in HEPES buffer (see R. Lottenberg, C. M. Jackson, Solution composition dependent variation in extinction coefficients for p-nitroaniline. Biochim Biophys Acta 742 (1983) 558-64). […]
Dipeptidyl peptidase IV (DPP-IV) activity was assessed in commercial preparations of human serum albumin (HSA). […]

DPP-IV activity, cHSA versus rHSA: no significant DPP-IV activity
Substance: rHSA: recombinant HSA (ecoHSA) from Genlantis, produced in seeds of Asian Rice (Oryza sativa)
